Conditions: 4M sodium salicylate, at room temperature

O=C([O-])c1ccccc1O.[Na+] [sodium salicylate]
RI: 1.455

— US20240167922A1, “TRANSPARENTIZING REAGENT AND TRANSPARENTIZING METHOD” (KYOTO UNIVERSITY, priority 2021, published 2024)
